Experiment [1] has as its system complex I (NADH dehydrogenase). The settings on record: 100 μmol/L drug, mean ± SD, 30 min at 30 °C.
Experiment [2] relates to complex II+III (succinate cytochrome c oxidoreductase). The settings on record: 100 μmol/L drug, mean ± SD, 30 min at 30 °C.
The test system of experiment [3] is complex IV (cytochrome c oxidase). The settings on record: 100 μmol/L drug, mean ± SD, 30 min at 30 °C.
For another experiment, the target named is T1, citrate synthase (CS) (Sus scrofa, UniProt P00889).
T1 sequence (P00889 28-464): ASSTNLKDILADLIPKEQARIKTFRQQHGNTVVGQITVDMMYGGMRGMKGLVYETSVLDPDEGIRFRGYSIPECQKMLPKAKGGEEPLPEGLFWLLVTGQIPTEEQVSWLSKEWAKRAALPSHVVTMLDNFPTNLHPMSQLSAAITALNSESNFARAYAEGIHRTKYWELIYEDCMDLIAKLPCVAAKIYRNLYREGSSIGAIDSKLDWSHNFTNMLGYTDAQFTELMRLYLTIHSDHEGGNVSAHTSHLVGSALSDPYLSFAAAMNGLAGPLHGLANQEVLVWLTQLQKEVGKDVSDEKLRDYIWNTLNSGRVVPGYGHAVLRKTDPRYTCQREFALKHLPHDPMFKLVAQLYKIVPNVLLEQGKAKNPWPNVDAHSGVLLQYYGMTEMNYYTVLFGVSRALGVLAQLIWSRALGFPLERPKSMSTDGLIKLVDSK
The settings on record: mean ± SD, N = 3.

The target in experiment [4] is T2, malate dehydrogenase (MDH) (Sus scrofa, UniProt P00346).
T2 sequence (P00346 25-338): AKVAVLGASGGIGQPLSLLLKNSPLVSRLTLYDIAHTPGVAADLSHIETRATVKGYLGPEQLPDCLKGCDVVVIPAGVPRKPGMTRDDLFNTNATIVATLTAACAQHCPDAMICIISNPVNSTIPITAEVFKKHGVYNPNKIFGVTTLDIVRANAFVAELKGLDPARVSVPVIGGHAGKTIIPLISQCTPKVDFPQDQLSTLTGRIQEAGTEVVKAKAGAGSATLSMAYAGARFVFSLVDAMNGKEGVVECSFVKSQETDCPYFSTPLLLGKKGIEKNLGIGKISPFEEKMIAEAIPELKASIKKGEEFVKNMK
Conditions: mean ± SD, N = 3.

Where two headings read alike, the source gives them in different places.

In the case of `Fc1ccc([C@@H]2CCNC[C@H]2COc2ccc3c(c2)OCO3)cc1`, the “complex I activity (relative to control)” value in experiment [1] was determined as 33.0 ± 4.4%. In experiment [2] (listed as PAR), the “complex II+III activity (relative to control)” value was 64.4 ± 4.5%.

On to `CN(C)CCC[C@@]1(c2ccc(F)cc2)OCc2cc(C#N)ccc21` [escitalopram], for which, in experiment [1], the “complex I activity (relative to control)” value is listed as 43.9 ± 4.7%. Besides, the “complex II+III activity (relative to control)” value in experiment [2] is 94.4 ± 2.7%. Further, in experiment [3], the “complex IV activity (relative to control)” value is on record as 34.9 ± 1.7%. Besides, the “CS (% of control)” value on citrate synthase (CS) (10 μM) is 102.4 ± 3.60 % of control; at citrate synthase (CS) (100 μM) it was 97.2 ± 1.52 % of control. The “MDH (% of control)” value in experiment [4] (10 μM) is on record as 98.0 ± 6.10 % of control; in experiment [4] (100 μM), 99.6 ± 2.64 % of control.

These data come from PMC10294837 (2023).
